Measurements: ChEMBL document CHEMBL2218924, “A broad activity screen in support of a chemogenomic map for kinase signalling research and drug discovery” (Biochem J, 2013)
For part of these data: The strong results were mostly taken out for another list; the other results follow. The rule behind the calls is not given here. This is a selection; strong and weak results do not stand in their true shares.

Chains of the proteins cited; added tags and fusions are not shown. Lines headed by an entry give the natural chain unless they say otherwise; changes in a name come on top.
UniProt P51955: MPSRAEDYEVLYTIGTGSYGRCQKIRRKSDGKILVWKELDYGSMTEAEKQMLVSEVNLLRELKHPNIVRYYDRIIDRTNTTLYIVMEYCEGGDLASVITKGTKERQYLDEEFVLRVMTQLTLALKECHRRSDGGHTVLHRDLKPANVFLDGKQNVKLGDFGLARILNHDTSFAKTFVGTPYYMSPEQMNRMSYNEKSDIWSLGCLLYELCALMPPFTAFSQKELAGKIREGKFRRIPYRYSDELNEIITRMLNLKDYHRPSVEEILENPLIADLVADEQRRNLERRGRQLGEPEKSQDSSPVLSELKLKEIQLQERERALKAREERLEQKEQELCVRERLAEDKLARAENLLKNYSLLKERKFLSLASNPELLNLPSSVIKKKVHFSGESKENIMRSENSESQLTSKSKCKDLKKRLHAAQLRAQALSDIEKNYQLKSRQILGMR
UniProt Q86Y07: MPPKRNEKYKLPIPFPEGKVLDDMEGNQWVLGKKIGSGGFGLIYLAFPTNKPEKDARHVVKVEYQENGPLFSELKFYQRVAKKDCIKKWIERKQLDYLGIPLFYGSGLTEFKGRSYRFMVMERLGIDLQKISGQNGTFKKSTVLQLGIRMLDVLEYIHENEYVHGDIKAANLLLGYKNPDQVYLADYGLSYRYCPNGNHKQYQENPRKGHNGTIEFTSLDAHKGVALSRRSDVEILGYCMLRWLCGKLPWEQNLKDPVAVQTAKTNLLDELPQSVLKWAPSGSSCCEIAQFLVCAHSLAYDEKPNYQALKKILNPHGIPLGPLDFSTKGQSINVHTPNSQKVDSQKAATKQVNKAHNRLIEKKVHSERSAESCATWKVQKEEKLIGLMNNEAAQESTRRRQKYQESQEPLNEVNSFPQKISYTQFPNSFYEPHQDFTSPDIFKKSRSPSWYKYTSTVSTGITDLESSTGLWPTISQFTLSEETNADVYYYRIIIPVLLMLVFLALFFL
UniProt P07947, whole entry, looked up: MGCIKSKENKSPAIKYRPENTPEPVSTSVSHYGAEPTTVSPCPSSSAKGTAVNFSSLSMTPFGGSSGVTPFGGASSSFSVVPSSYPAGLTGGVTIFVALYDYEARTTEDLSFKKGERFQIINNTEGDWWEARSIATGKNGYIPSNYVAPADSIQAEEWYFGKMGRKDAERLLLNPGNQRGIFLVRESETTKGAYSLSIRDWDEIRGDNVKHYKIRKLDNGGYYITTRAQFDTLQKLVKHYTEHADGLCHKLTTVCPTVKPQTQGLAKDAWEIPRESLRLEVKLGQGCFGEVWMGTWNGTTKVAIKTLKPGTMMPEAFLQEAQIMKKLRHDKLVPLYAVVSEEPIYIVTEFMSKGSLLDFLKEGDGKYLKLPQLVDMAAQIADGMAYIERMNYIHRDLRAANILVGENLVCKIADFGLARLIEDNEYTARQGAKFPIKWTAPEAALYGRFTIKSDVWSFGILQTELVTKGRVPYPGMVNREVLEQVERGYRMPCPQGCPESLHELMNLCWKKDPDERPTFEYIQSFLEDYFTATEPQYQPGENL
UniProt P10721, whole entry: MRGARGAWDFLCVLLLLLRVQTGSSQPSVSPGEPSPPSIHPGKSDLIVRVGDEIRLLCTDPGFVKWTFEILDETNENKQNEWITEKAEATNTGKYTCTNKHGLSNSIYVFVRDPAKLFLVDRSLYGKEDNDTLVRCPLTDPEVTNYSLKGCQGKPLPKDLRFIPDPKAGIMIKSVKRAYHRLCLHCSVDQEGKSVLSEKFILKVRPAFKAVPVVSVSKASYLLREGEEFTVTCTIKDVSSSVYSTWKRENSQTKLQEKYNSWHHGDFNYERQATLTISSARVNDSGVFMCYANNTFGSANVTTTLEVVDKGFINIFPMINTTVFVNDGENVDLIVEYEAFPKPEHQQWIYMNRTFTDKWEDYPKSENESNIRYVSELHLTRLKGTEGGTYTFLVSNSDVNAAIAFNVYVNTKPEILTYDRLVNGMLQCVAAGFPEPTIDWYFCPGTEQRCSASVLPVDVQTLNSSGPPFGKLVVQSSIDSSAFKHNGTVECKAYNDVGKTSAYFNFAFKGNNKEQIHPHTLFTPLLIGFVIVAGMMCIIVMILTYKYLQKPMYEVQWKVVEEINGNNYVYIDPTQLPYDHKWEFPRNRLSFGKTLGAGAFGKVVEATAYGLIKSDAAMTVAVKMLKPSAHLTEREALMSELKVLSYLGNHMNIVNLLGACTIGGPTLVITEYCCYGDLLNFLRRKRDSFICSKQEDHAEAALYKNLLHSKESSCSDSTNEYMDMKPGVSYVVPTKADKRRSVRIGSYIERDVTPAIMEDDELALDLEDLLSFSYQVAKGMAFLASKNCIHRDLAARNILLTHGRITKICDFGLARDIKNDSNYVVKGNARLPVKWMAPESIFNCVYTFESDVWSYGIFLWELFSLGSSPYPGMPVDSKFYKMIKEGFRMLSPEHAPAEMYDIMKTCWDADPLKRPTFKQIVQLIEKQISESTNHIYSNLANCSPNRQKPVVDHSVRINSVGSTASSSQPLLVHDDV
UniProt Q8TDX7: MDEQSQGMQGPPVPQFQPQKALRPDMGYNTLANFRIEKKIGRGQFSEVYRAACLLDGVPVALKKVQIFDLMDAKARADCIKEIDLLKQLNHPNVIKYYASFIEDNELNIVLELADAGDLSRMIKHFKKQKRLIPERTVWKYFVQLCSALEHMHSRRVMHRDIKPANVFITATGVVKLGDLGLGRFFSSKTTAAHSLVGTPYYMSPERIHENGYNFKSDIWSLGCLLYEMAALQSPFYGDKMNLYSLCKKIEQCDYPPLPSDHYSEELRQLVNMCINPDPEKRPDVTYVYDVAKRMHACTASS
UniProt Q9P286: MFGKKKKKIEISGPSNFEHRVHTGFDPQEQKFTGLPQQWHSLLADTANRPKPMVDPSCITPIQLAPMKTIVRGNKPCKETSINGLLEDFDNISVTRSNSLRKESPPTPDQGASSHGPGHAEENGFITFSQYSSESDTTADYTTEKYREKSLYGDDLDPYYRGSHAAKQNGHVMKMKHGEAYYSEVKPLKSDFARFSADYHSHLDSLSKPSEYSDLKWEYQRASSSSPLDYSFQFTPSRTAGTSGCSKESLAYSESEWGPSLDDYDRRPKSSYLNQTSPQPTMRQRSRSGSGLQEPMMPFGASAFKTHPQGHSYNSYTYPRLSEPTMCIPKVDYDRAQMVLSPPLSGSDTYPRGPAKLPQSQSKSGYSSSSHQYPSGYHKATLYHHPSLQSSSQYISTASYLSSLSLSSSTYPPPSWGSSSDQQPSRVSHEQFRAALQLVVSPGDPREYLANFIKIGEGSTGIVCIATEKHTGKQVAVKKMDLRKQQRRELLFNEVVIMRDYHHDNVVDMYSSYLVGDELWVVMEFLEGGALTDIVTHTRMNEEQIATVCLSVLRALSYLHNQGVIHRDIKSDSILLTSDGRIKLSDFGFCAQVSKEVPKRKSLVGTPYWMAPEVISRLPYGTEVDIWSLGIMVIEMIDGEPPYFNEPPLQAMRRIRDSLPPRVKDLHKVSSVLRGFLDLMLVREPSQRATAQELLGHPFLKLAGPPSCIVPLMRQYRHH
UniProt Q96RG2: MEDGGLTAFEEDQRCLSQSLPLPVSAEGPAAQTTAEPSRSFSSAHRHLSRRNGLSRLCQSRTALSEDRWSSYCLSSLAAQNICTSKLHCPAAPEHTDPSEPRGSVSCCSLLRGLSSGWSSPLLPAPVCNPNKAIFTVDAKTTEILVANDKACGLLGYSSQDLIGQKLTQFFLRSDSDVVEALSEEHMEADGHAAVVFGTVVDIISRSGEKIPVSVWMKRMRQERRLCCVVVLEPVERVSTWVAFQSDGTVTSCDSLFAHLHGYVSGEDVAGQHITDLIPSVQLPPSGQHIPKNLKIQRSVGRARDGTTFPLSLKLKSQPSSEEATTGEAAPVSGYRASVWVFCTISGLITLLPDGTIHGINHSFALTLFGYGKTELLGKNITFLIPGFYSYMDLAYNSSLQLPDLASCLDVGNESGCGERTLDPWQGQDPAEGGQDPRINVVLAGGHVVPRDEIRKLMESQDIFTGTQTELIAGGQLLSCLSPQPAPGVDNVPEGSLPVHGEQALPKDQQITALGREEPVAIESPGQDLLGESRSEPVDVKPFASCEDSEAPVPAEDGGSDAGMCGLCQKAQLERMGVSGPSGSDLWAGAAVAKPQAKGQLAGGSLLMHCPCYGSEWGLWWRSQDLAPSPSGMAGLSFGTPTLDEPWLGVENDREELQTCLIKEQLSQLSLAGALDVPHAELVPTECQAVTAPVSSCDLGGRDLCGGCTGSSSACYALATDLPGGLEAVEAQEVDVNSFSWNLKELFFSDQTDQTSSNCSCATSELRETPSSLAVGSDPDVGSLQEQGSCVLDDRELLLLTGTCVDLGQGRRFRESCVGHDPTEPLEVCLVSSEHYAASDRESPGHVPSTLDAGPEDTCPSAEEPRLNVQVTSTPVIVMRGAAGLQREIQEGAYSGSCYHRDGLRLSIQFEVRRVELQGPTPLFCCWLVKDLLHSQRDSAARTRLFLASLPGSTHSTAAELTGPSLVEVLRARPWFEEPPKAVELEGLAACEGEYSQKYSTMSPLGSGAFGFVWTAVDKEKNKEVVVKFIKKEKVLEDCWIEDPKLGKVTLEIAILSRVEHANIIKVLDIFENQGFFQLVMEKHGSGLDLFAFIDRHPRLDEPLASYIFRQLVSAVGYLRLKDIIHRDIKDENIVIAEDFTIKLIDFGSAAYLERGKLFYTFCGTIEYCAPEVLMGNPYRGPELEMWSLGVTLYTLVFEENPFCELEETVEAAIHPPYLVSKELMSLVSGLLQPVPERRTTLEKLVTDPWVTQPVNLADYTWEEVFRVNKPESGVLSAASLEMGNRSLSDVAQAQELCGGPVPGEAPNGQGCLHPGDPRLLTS
UniProt O15530: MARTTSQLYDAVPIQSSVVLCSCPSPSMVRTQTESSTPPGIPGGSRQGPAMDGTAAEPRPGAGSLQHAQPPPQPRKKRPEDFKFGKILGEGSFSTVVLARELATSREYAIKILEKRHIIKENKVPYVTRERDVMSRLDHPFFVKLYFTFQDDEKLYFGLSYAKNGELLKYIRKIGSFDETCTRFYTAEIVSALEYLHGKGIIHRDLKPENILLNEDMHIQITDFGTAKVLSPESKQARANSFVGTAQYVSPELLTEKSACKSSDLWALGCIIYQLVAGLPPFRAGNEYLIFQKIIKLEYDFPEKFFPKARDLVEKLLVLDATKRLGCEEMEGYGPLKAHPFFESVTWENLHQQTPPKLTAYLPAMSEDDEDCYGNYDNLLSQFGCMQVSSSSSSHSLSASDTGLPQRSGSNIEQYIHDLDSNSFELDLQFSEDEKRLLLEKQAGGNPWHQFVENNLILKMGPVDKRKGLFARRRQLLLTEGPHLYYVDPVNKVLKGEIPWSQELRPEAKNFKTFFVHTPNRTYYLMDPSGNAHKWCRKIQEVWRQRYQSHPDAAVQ
UniProt P31749: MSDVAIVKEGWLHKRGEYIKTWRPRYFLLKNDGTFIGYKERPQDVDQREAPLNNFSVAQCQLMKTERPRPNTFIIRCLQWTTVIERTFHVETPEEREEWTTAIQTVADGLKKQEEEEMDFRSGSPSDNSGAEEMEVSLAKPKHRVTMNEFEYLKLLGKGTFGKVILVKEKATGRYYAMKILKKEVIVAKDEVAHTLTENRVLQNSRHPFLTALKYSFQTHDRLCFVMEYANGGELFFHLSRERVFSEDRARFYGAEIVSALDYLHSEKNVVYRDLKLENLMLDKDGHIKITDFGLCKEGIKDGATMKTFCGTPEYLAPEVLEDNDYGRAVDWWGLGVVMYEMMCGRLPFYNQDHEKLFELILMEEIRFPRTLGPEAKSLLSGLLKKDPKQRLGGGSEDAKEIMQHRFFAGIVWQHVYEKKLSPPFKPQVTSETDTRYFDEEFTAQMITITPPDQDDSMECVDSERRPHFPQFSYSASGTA
UniProt P05771, whole entry, looked up: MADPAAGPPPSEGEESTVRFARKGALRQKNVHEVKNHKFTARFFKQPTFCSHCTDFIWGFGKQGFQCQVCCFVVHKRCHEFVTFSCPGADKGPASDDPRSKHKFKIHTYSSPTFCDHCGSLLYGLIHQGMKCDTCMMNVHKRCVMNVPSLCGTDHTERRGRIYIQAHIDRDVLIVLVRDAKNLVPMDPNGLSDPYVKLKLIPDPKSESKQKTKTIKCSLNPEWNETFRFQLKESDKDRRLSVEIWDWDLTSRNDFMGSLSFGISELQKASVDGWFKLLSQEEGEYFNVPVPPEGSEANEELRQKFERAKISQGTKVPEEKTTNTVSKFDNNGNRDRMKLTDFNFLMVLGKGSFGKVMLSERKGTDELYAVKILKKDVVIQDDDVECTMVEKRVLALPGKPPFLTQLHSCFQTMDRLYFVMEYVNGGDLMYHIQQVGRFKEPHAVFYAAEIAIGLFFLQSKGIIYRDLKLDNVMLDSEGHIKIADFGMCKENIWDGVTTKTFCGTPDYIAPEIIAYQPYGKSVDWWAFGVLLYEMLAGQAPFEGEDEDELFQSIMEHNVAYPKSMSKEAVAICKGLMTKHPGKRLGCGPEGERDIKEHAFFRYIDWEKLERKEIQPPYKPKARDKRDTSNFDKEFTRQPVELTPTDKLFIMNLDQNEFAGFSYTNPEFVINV

Legend:
[1] = biological target: Serine/threonine-protein kinase Nek2 (Homo sapiens) (UniProt P51955); conditions: at 1 µM
[2] = biological target: Serine/threonine-protein kinase Nek3 (Homo sapiens) (UniProt P51956); conditions: at 10 µM
[3] = biological target: T1, Serine/threonine-protein kinase ULK2 (Homo sapiens) (UniProt Q8IYT8); conditions: at 1 µM
T1 sequence (whole entry): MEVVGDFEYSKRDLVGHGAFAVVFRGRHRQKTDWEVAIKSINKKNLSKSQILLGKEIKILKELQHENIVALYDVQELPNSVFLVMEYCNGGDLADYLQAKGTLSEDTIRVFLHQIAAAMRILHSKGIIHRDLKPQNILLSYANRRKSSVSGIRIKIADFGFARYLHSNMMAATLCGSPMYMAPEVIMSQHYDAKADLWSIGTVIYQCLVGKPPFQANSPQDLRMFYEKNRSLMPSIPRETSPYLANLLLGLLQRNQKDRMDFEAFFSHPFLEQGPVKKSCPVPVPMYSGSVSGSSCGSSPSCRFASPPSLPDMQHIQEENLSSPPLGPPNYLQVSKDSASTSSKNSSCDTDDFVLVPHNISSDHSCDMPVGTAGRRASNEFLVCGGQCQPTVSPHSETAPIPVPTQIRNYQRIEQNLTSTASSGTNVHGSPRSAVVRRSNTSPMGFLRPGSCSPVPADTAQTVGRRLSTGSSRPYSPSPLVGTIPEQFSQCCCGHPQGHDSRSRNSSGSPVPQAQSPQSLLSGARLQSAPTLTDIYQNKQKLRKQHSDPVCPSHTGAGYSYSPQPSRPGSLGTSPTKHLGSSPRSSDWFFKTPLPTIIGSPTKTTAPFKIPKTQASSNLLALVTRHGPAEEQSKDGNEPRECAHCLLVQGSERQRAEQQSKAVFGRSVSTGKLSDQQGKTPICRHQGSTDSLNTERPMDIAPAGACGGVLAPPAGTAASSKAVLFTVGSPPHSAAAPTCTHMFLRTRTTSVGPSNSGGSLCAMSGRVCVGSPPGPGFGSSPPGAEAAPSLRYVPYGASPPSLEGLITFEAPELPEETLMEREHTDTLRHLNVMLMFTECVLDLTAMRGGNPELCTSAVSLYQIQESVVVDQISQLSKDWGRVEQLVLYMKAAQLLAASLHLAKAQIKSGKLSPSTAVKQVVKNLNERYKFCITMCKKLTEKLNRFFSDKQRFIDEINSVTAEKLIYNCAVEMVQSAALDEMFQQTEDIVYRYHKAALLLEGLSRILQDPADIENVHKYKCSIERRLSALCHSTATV

[4] = biological target: T1, Serine/threonine-protein kinase ULK2 (Homo sapiens); conditions: at 10 µM
[5] = biological target: Serine/threonine-protein kinase VRK2 (Homo sapiens) (UniProt Q86Y07); conditions: at 1 µM
[6] = biological target: Serine/threonine-protein kinase VRK2 (Homo sapiens) (UniProt Q86Y07); conditions: at 10 µM
[7] = biological target: Tyrosine-protein kinase Yes (Homo sapiens) (UniProt P07947); conditions: at 1 µM
[8] = biological target: T2, Tyrosine-protein kinase ZAP-70 (Homo sapiens) (UniProt P43403); conditions: at 1 µM
T2 sequence (whole entry): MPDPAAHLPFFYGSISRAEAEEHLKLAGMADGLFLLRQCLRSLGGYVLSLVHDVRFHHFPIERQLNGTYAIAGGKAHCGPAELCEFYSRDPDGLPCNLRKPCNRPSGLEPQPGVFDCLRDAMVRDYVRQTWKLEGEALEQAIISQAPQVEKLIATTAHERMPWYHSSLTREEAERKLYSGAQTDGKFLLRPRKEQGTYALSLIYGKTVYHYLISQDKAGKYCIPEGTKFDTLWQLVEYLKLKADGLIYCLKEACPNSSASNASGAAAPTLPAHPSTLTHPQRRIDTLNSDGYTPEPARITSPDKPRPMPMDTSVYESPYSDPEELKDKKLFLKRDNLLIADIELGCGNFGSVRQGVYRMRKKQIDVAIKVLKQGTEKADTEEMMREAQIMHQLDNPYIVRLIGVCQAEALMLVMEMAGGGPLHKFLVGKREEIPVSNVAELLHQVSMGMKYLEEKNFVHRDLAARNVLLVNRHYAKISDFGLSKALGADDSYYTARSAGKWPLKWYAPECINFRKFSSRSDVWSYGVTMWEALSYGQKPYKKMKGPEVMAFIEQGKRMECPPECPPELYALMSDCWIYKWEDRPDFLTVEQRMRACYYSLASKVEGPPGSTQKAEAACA

[9] = biological target: T2, Tyrosine-protein kinase ZAP-70 (Homo sapiens); conditions: at 10 µM
[10] = biological target: Mast/stem cell growth factor receptor Kit (Homo sapiens) (UniProt P10721); conditions: at 1 µM
[11] = biological target: Proto-oncogene tyrosine-protein kinase Src (Homo sapiens) (UniProt P12931); conditions: at 1 µM
[12] = biological target: T3, Serine/threonine-protein kinase Nek6 (Homo sapiens) (UniProt Q9HC98); conditions: at 10 µM
T3 sequence (whole entry): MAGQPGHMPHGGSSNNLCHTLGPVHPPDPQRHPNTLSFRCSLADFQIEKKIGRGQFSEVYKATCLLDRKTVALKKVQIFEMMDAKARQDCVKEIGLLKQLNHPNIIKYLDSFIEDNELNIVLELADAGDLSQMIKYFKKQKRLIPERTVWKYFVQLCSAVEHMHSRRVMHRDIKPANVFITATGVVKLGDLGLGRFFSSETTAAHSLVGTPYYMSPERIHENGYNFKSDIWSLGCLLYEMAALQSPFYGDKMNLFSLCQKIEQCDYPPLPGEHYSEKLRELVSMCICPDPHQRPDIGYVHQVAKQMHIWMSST

[13] = biological target: Serine/threonine-protein kinase Nek7 (Homo sapiens) (UniProt Q8TDX7); conditions: at 10 µM
[14] = biological target: Serine/threonine-protein kinase PAK 4 (Homo sapiens) (UniProt O96013); conditions: at 10 µM
[15] = biological target: Serine/threonine-protein kinase PAK 5 (Homo sapiens) (UniProt Q9P286); conditions: at 1 µM
[16] = biological target: PAS domain-containing serine/threonine-protein kinase (Homo sapiens) (UniProt Q96RG2); conditions: at 1 µM
[17] = biological target: T4, Activin receptor type-1B (Homo sapiens) (UniProt P36896); conditions: at 10 µM
T4 sequence (whole entry): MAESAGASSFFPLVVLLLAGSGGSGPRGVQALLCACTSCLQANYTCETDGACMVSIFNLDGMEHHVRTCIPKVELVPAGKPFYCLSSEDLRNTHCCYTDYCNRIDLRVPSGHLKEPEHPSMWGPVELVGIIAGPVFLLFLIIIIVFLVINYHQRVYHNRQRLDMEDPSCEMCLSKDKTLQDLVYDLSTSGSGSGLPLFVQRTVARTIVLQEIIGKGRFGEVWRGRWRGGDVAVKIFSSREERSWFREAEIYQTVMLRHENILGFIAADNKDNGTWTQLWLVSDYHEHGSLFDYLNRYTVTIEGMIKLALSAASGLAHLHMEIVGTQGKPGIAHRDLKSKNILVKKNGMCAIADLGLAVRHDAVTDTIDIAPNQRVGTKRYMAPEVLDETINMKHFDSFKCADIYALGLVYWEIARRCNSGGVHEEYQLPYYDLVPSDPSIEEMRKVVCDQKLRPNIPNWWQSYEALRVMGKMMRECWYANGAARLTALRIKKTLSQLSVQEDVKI

[18] = biological target: Platelet-derived growth factor receptor alpha (Homo sapiens) (UniProt P16234); conditions: at 1 µM
[19] = biological target: Platelet-derived growth factor receptor alpha (Homo sapiens) (UniProt P16234); conditions: at 10 µM
[20] = biological target: Platelet-derived growth factor receptor beta (Homo sapiens) (UniProt P09619); conditions: at 1 µM
[21] = biological target: 3-phosphoinositide-dependent protein kinase 1 (Homo sapiens) (UniProt O15530); conditions: at 1 µM
[22] = biological target: 3-phosphoinositide-dependent protein kinase 1 (Homo sapiens) (UniProt O15530); conditions: at 10 µM
[23] = biological target: cAMP-dependent protein kinase catalytic subunit alpha (Homo sapiens) (UniProt P17612); conditions: at 1 µM
[24] = biological target: cAMP-dependent protein kinase catalytic subunit alpha (Homo sapiens) (UniProt P17612); conditions: at 10 µM
[25] = biological target: RAC-alpha serine/threonine-protein kinase (Homo sapiens) (UniProt P31749); conditions: at 10 µM
[26] = biological target: Protein kinase C alpha type (Homo sapiens) (UniProt P17252); conditions: at 10 µM
[27] = biological target: Protein kinase C beta type (Homo sapiens) (UniProt P05771); conditions: at 1 µM
[28] = biological target: Protein kinase C beta type (Homo sapiens) (UniProt P05771); conditions: at 10 µM
[29] = biological target: Protein kinase C beta type (Homo sapiens) (UniProt P05771); conditions: at 1 µM; remark: listed apart in the source
[30] = biological target: T5, Protein kinase C epsilon type (Homo sapiens) (UniProt Q02156); conditions: at 10 µM
T5 sequence (whole entry): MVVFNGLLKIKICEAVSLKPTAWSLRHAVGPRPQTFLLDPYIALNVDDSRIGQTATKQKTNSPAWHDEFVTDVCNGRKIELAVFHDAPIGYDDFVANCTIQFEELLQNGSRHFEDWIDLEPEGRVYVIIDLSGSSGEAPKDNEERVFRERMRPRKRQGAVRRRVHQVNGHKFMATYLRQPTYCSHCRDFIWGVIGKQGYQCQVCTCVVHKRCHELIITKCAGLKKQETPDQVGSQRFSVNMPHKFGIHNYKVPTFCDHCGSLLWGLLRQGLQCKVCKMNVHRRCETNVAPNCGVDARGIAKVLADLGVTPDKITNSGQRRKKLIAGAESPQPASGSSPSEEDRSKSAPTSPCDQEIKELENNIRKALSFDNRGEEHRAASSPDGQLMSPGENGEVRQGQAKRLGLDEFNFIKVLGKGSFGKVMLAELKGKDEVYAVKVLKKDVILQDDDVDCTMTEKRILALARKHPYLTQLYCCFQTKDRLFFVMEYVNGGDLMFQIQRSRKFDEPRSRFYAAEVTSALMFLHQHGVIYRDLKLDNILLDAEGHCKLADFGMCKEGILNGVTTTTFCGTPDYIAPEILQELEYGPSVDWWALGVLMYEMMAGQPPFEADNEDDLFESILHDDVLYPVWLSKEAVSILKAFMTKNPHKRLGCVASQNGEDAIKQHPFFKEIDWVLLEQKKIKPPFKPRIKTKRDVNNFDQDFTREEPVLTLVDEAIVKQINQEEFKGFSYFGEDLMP

In the case of `O=C1NC(=O)C(c2cn(CCCO)c3ncccc23)=C1c1cnccn1`, the residual activity [1] is reported as 102%, the residual activity [2] is reported as 102% and the residual activity [3] is reported as 101%. The residual activity [4] was 102%, the residual activity [5] was inactive: 102% and the residual activity [6] was 94%. The residual activity [7] was 109%, the residual activity [8] was 112% and the residual activity [9] was 101%. It also gave a residual activity [10] of 108%, a residual activity [11] of 102% and a residual activity [12] of 100%. The residual activity [13] was inactive: 100%, the residual activity [14] was 101% and the residual activity [15] was 106%. It also gave a residual activity [16] of 114%, a residual activity [17] of 112% and a residual activity [18] of 102%. It also gave a residual activity [19] of 103%, a residual activity [20] of 112% and a residual activity [21] of 105%. It also gave a residual activity [22] of 99%, a residual activity [23] of 95% and a residual activity [24] of 102%. For the same compound, the residual activity [25] was 111%, the residual activity [26] was 95% and the residual activity [27] was 122%. For the same compound, the residual activity [28] was 117%, the residual activity [29] was 110% and the residual activity [30] was 110%.
